Several values for one entry are separate records, joined by “and”; a condition that tells them apart may be missing. Equal entries are not always repeated.

By UniProt entry, the sequences of proteins in these tests, tags left out.
UniProt P35372, whole entry, looked up: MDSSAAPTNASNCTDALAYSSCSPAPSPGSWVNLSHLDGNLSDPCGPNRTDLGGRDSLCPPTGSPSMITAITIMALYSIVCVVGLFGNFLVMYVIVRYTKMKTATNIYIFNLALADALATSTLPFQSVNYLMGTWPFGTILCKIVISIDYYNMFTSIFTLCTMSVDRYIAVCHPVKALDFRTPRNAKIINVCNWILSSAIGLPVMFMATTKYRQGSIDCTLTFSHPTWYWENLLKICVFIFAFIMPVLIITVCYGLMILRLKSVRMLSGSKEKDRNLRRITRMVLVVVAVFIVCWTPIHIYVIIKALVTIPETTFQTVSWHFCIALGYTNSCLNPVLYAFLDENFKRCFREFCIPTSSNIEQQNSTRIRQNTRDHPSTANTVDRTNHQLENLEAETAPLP

Experimental findings from ChEMBL document CHEMBL1138974 (Bioorg Med Chem Lett, 2006) are described below.

The assay deals with Mu-type opioid receptor (Homo sapiens, UniProt P35372). The experiment in a line: Displacement of [3H]naloxone from human mu opioid receptor expressed in BHK cells.

`O=C1NC[C@@H](c2ccccc2)C12CCN(C1CCCCC1c1ccccc1)CC2` (some centres not stated) registered an IC50 of 3.92 µM.

On to `O=C1NCC(c2ccccc2)C12CCN(C1CCCCC1(O)c1ccc(F)cc1)CC2` (configuration not stated), for which the half-inhibitory concentration (IC50) was > 10 µM and 24 µM.
